Paper PMC6015732

The chains behind the UniProt entries cited, without tags or fusion partners. Residues count along the entry.
UniProt P02745, 23-245: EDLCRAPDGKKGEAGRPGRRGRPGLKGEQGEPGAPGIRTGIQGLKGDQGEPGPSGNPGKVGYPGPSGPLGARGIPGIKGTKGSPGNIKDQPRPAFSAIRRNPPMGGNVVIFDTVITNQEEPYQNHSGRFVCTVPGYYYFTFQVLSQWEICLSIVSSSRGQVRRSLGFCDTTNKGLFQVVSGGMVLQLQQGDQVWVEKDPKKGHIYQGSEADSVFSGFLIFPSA
human complement component C1q, UniProt P02746, 28-253: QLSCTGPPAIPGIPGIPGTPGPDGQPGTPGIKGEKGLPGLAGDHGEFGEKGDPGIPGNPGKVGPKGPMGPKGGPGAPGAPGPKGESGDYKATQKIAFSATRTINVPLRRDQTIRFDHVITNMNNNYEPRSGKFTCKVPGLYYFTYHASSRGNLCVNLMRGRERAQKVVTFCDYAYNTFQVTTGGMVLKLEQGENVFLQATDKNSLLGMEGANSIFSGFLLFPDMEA
human complement component C1q, UniProt P02747, 29-245: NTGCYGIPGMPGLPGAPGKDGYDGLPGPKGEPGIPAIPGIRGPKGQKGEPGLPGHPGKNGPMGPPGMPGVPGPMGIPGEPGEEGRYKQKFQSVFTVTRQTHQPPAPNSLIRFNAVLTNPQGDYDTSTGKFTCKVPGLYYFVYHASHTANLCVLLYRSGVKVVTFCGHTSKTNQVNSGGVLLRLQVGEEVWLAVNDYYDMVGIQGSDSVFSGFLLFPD

Experiments:
Experiment in all cases: SPR
[1] = target: RA802 (Rituxan clone 802, aglycosylated) (human)
[2] = target: RG801 (Fc domain of glycosylated clone 801 constructed with the Fab arms of Rituxan) (human)
[3] = target: RA801 (Fc domain of aglycosylated clone 801 constructed with the Fab arms of Rituxan) (human)

- Kd [1]: 0.145 nM
- Kd [2]: 0.385 nM
- Kd [3]: 0.108 nM
Substance: human complement component C1q (from UniProt P02745 23-245; P02746 28-253; P02747 29-245) (complex)
